According to patent US6136552A, “High-affinity salicylic acid-binding protein and methods of use” (Rutgers, The State University of New Jersey, priority 1997, dated 2000):

What was measured:
PR-1 gene expression = assay: Induction of PR-1 gene expression in leaf discs (northern blot); assay type: cell-based, tobacco; conditions: Nicotiana tabacum, foliar, 24 hours after treatment, read-out: concentration giving 15-fold induction of PR-1 gene expression
Text: As a control, rRNA present in each lane is also shown. FIG. 7B is a graph showing quantification of the fold-induction of the PR-1 mRNA levels after SA (.cndot.) and BTH (.smallcircle.) treatment. The levels of PR-1 mRNA were normalized to the amounts of rRNA. The rRNA-normalized levels of PR-1 mRNA obtained after infiltration of leaf discs with SA or BTH were divided by the rRNA-normalized level of PR-1 mRNA obtained after infiltration with water only to determine the fold induction. The data presented are from a single experiment; two additional experiments were done. The maximum-fold induction of the PR-1 genes and the concentrations of SA and BTH required to reach approximately 50% of this value varied somewhat among the three experiments, depending on the age of the plant. In the three experiments, the concentrations of BTH needed to reach approximately 50% induction were 30- to 40-fold lower than those for SA.

[1] = tested on: (NH4)2 SO4 fractions of tobacco leaf soluble protein extract; assay: Binding of [3H]SA to various (NH4)2SO4 fractions; conditions: 0.1 μM [3H]SA
Description: (§1) Leaf extraction. Tobacco leaves from 7-8 week old plants (100 g) were deribbed and ground to a fine powder in liquid nitrogen. All subsequent procedures were carried out at 4° C. Soluble proteins were extracted from the powdered leaves by incubating for 30 minutes in 400 mL buffer A containing 20 mM sodium citrate pH 6.5, 5 mM MgSo4, 1 mM EDTA, 14 mM β-mercaptoethanol, and 1% (w/w) polyvinylpyrrolidone (PVP). Cell debris was removed by centrifugation at 23,000 g for 25 minutes and the supernatant was collected by filtration through two layers of Miracloth (Calbiochem). In some preparations the membrane fraction was removed by centrifugation at 85,000 g for 1 hour. Soluble proteins were precipitated from the crude extract with (NH4)2 SO4 adjusted sequentially to 25%, 50%, 75%, and 100% saturation, incubated for 30 minutes, and centrifuged at 23,000 g for 25 minutes. Pellets from each (NH4)2 SO4 fraction were dissolved in 5 mL buffer A and dialyzed twice in 4 L of buffer A overnight. The four (NH4)2 SO4 fraction extracts were stored on ice before use. Catalase activity in the extract was measured using an O2 evolution assay as described by Takahashi et al. (1997). Protein concentration of each extract was measured according to Bradford (Bradford, 1976) using the Bio-Rad protein assay kit.
(§2) [3H]SA binding and competition assays. Extracts (50-100 μL of 0.5-50 mg/mL) from various (NH4)2 SO4 fractions were mixed with 0.1 μM [^3 H]SA in 150 μL reaction mixture and incubated on ice for 2 hours. Spin columns were prepared by packing Sephadex G25 gel (exclusion limit 5 kDa; Pharmacia), which was pre-equilibrated in buffer A, in a 1-mL disposable syringe and centrifuging at 1,000 g for 4 minutes at 4° C. This process was repeated until the bed volume of the spin column reached 1 mL. One additional spin with 125 μL buffer A was performed under the same centrifugation conditions. The binding mixture (125 μL) was loaded onto the spin column and immediately centrifuged. Bound [^3 H]SA in the flow through (100 μL) was measured in a liquid scintillation counter. When no protein extract was included in the binding mixture, the background radioactivity level was 33±3 dpm/100 μL. For the boiling treatment, the extract was boiled for 5 minutes and denatured protein aggregates were removed by centrifugation at 12,000 g for 1 minute. Nonspecific [^3 H]SA binding was estimated by carrying out the binding assay in the presence of 1 mM unlabeled SA. For the [^3 H]SA competition assay, unlabeled SA and its analogues were diluted in 20 mM sodium citrate (pH 6.5) and incubated with 50 AL extract and 0.1 MM [^3 H]SA as described above.

[2] = molecular target: T1, (NH4)2 SO4 fractions of tobacco leaf soluble protein extract (Nicotiana tabacum, UniProt Q6RYA0); assay: Binding of [3H]SA to various (NH4)2SO4 fractions; conditions: 0.1 μM [3H]SA
T1 construct: Soluble proteins were extracted from the powdered leaves; from tissue; host or cells: tobacco leaf (cv. Xanthi nc), ammonium sulfate fractions
T1 sequence (Q6RYA0 1-260): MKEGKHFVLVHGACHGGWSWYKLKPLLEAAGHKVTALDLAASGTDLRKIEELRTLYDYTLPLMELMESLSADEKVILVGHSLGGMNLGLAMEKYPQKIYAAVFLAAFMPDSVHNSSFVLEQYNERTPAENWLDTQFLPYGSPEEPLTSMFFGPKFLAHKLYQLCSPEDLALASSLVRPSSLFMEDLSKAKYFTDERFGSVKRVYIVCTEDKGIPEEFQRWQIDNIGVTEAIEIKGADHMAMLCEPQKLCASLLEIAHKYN
Description: as §1, §2

Structure (SMILES)	EC (15-fold) (PR-1 gene expression) [µM]	Binding of [3H]SA, 0-25% fraction [1]	Binding of [3H]SA, 25-50% fraction [1]	Binding of [3H]SA, 75-100% fraction [1]	Binding of [3H]SA, 50-75% fraction [2]
O=C(O)c1ccccc1O [SA, salicylic acid]	~130	–	–	–	–
O=C(O)c1ccccc1O [[^3 H]SA]	–	32.8 ± 2.1 dpm (×10^-3) per mg protein	7.27 dpm (×10^-3) per mg protein	0.35 ± 0.57 dpm (×10^-3) per mg protein	2.23 ± 0.24 dpm (×10^-3) per mg protein
